For one compound, MBC/MFC and MIC results are on record in paper PMC8386128, “Evaluation of Short-Chain Antimicrobial Peptides With Combined Antimicrobial and Anti-inflammatory Bioactivities for the Treatment of Zoonotic Skin Pathogens From Canines” (Frontiers in Microbiology, 2021).

In brackets after ≈: the same amount, converted by molar mass.

Assay [1] relates to Trichophyton mentagrophytes MW766984. The settings on record: 24 h.
Assay [2] concerns Microsporum gypseum MW766983. The settings on record: 24 h.

Consider `CC[C@H](C)[C@H](NC(=O)CNC(=O)[C@H](CO)NC(=O)[C@H](CC(C)C)NC(=O)[C@H](CC(C)C)NC(=O)CN)C(=O)N[C@@H](CC(C)C)C(=O)NCC(=O)N[C@@H](C)C(=O)NCC(=O)N[C@@H](CCCCN)C(=O)N[C@@H](CCCCN)C(=O)N[C@H](C(=O)N[C@H](C(=O)N[C@@H](Cc1ccccc1)C(=O)O)C(C)C)[C@@H](C)CC` [Nigrocin-HLM], for which, in assay [1], the MBC/MFC came out at 2 µg/mL (≈ 1.36 µM) and the MIC – broadly, the lowest concentration found to suppress growth – is 2 µg/mL (≈ 1.36 µM). In assay [2], the minimum inhibitory concentration (MIC) was 1 µg/mL (≈ 0.679 µM).
